Legend:
[1] = Room temperature evaporation rate: rate of weight loss in a stream of 25° C. nitrogen relative to n-butyl acetate; format: physicochemical; conditions: relative to n-butyl acetate under the same conditions
Method: Most compounds released by manufacturing processes affect the environment in some manner. […] The room temperature evaporation rates of some of the ILs described in the present invention were compared to several well known compounds by measuring the rate of weight loss in a stream of 25° C. nitrogen relative to the rate of weight loss of n-butyl acetate under the same conditions.

[2] = range of 43 organic solvents

Row | Substance | Evaporation Rate (n-Butyl Acetate = 1) [1] | Solubility in the tested organic solvents [2]
1 | Nickel (II) 2-ethylhexanoate [Ni(2eh)2] | <0.001 | –
2 | aluminum (III) 2-ethylhexanoate [Al(2eh)3] | – | only found to dissolve in carbon tetrachloride
